scFv variants of Ab-14 (heavy chain) against a SARS-CoV-2 spike peptide

From the AlphaSeq antibody data of Li et al. 2023 (doi:10.1038/s41467-023-39022-2), copy in the FLAb collection.

All variants were tested on one target, the spike HR2 peptide PDVDLGDISGINAS (SARS-CoV-2).

Each scFv is VH, the linker GGGGSGGGGSGGGGS, VL, as in the parent Ab-14, and differs from it in the CDRs of the heavy chain only.
VH: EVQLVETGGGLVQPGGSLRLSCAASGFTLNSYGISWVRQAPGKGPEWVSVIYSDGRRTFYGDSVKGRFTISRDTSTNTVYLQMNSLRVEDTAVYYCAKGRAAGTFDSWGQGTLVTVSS
VL: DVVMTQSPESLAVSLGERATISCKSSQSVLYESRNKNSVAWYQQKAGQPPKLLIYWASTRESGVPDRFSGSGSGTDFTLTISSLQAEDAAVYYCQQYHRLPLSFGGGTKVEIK

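The parent was found by panning a naive human phage display library on the peptide. These sequences belong to a second round, designed from the earlier measurements on random variants of the parent. Their group label is 14H_Ctrl (Ctrl: baseline library sampled from a position-specific scoring matrix, with some repeated check sequences). In AlphaSeq, yeast of one mating type display the scFv and yeast of the other type display the target. After mating in shaken culture at 30 °C for 16 h, diploids were selected and their barcode pairs sequenced. Each replicate has its own calibration line, from reference interactions of the BCL2 family. Each pool was mated in six replicate cultures.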

Each variant's VH is given in full.
The read-out is the apparent dissociation constant on a log10 scale (nM): the lower, the stronger.
A mean of the replicates is given; it leaves out those without a signal.
A pair that was not seen in that replicate is written "ND"; this usually means weak binding, but a binder can also be missed.

{"VH": "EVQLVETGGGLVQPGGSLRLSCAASGATLRSYSISWVRQAPGKGPEWVSVIYSDGRRTFYGDSVKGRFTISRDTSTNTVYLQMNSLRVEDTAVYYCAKGRAAGTIDSWGQGTLVTVSS", "replicates, log10 nM": "ND / ND / ND / ND / ND / ND", "log10 Kd (nM), mean": "ND", "empty controls": "0/18"}
{"VH": "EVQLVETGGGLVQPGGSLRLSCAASGFTLNSYGISWVRQAPGKGPEWVSVIYSDGRRTFYTDSVKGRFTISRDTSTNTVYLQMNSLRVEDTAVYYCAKGRAAGTFDLWGQGTLVTVSS", "replicates, log10 nM": "ND / ND / ND / ND / -0.44 / ND", "log10 Kd (nM), mean": "-0.44", "empty controls": "0/18"}
{"VH": "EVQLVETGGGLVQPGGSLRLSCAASGFRLNSYGISWVRQAPGKGPEWVSVIYSDGRRTFYGDSVKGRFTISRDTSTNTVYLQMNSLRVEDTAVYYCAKGFAAGTFDSWGQGTLVTVSS", "replicates, log10 nM": "ND / ND / 1.98 / ND / ND / ND", "log10 Kd (nM), mean": "1.98", "empty controls": "0/18"}
{"VH": "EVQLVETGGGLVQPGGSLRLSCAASGFTLNSYGISWVRQAPGKGPEWVSVIYSDGRRNFYGDSVDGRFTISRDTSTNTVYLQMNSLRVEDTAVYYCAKLRAAGAFDLWGQGTLVTVSS", "replicates, log10 nM": "ND / ND / ND / ND / ND / ND", "log10 Kd (nM), mean": "ND", "empty controls": "0/18"}
{"VH": "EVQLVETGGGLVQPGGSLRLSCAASGFTLNSIGISWVRQAPGKGPEWVSVIYSDGRRTFYGDSVKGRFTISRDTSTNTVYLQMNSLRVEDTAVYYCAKGPAAGTFDSWGQGTLVTVSS", "replicates, log10 nM": "ND / ND / ND / ND / ND / ND", "log10 Kd (nM), mean": "ND", "empty controls": "0/18"}
{"VH": "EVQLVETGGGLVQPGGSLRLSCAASGFTLNSYPISWVRQAPGKGPEWVSVIYSDGRRTFYGDSVKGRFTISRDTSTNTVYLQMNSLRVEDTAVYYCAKGRAAGLFDSWGQGTLVTVSS", "replicates, log10 nM": "ND / ND / ND / ND / ND / ND", "log10 Kd (nM), mean": "ND", "empty controls": "0/18"}
{"VH": "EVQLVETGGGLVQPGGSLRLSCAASGETLTSYGISWVRQAPGKGPEWVSVIYSDGRRTWYGDSVKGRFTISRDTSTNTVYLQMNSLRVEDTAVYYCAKGRAAGAFDSWGQGTLVTVSS", "replicates, log10 nM": "ND / ND / ND / ND / ND / ND", "log10 Kd (nM), mean": "ND", "empty controls": "0/18"}
{"VH": "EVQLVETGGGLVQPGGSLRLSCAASGFTLNSYGVSWVRQAPGKGPEWVSVIYSDGRRTAYGDSVKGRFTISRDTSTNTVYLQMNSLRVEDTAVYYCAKGRAAKQFDVWGQGTLVTVSS", "replicates, log10 nM": "ND / ND / ND / ND / ND / ND", "log10 Kd (nM), mean": "ND", "empty controls": "1/18 (0.47)"}
{"VH": "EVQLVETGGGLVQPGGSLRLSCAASGFTLNSYGISWVRQAPGKGPEWVSVIYSDGSRTFYDDSVKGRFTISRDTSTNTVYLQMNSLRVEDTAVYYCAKGRLAGTFDSWGQGTLVTVSS", "replicates, log10 nM": "ND / ND / ND / ND / ND / ND", "log10 Kd (nM), mean": "ND", "empty controls": "0/18"}
{"VH": "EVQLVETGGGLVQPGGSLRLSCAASGFTLNEYGISWVRQAPGKGPEWVSVIYSDGRRTFMGDSVKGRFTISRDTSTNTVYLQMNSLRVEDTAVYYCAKGRAAGTFDHWGQGTLVTVSS", "replicates, log10 nM": "1.45 / 1.71 / ND / 1.28 / 1.10 / 2.47", "log10 Kd (nM), mean": "1.60", "empty controls": "1/18 (2.10)"}
{"VH": "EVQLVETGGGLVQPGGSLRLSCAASGFTLNDYGISWVRQAPGKGPEWVSVIYSDGRRTFYGDSVKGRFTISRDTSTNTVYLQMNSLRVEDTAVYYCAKGRWAGTFDSWGQGTLVTVSS", "replicates, log10 nM": "1.02 / 1.01 / 0.96 / 1.14 / 1.56 / 1.16", "log10 Kd (nM), mean": "1.14", "empty controls": "1/18 (2.42)"}
{"VH": "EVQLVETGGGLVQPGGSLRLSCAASQFTLNSYGISWVRQAPGKGPEWVSVIYSDGRRTFYGDSVKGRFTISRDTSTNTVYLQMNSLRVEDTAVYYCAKGRAAGTFDVWGQGTLVTVSS", "replicates, log10 nM": "ND / ND / ND / ND / ND / ND", "log10 Kd (nM), mean": "ND", "empty controls": "0/18"}
{"VH": "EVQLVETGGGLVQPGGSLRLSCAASGFTLNSYGISWVRQAPGKGPEWVSVIYADGRRTFYGDSVDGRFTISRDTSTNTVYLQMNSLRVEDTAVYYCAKGRAIGTFDSWGQGTLVTVSS", "replicates, log10 nM": "ND / ND / ND / ND / ND / 2.46", "log10 Kd (nM), mean": "2.46", "empty controls": "0/18"}
{"VH": "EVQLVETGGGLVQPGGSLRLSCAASGETLNSYGISWVRQAPGKGPEWVSVIYADGRRTFYNPSVKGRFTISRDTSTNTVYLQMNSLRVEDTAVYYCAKGRNAGTFDSWGQGTLVTVSS", "replicates, log10 nM": "0.27 / -0.74 / -0.13 / -0.67 / 0.01 / -0.29", "log10 Kd (nM), mean": "-0.26", "empty controls": "0/18"}
{"VH": "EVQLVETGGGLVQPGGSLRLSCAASGFDLKSYGISWVRQAPGKGPEWVSVIYSDGRRTAYGDSVKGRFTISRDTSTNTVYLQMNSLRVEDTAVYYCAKGFAAGTFPSWGQGTLVTVSS", "replicates, log10 nM": "ND / ND / ND / ND / ND / ND", "log10 Kd (nM), mean": "ND", "empty controls": "0/18"}
{"VH": "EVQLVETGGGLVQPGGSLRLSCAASGFTLNSYGISWVRQAPGKGPEWVSVDYSDGRRTFYGDSVKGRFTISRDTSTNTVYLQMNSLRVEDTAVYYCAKGNAAGTKDSWGQGTLVTVSS", "replicates, log10 nM": "ND / ND / ND / ND / ND / ND", "log10 Kd (nM), mean": "ND", "empty controls": "0/18"}
{"VH": "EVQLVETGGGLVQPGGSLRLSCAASGFHLESYGISWVRQAPGKGPEWVSVIYSDGRRTFYTDSVKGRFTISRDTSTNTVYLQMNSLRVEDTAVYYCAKGRAAGTFDSWGQGTLVTVSS", "replicates, log10 nM": "1.70 / 2.62 / 0.78 / 2.52 / ND / 1.21", "log10 Kd (nM), mean": "1.77", "empty controls": "0/18"}
{"VH": "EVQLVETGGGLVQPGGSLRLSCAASGFTLNEYGISWVRQAPGKGPEWVSVIYSDGHRTFYGDSVKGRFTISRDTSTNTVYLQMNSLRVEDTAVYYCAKGREALTFDLWGQGTLVTVSS", "replicates, log10 nM": "0.50 / 0.59 / 0.47 / -0.03 / 0.31 / 0.12", "log10 Kd (nM), mean": "0.33", "empty controls": "0/18"}
{"VH": "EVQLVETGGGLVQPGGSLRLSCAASGFALNSYGVSWVRQAPGKGPEWVSVIYADGRRTFYHDSVKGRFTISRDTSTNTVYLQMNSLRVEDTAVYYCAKGRTAGTGDMWGQGTLVTVSS", "replicates, log10 nM": "ND / ND / ND / ND / ND / ND", "log10 Kd (nM), mean": "ND", "empty controls": "0/18"}
{"VH": "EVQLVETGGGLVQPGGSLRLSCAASGFTLESYGISWVRQAPGKGPEWVSVIYADGHRTFYSDSVKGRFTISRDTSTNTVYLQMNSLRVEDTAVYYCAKGSAAGNFDSWGQGTLVTVSS", "replicates, log10 nM": "ND / ND / ND / ND / ND / ND", "log10 Kd (nM), mean": "ND", "empty controls": "0/18"}
{"VH": "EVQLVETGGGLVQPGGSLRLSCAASGFSLNSHGISWVRQAPGKGPEWVSVIYSDGRRTFYSDRVKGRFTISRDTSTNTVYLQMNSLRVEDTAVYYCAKGKATGTFDSWGQGTLVTVSS", "replicates, log10 nM": "ND / ND / ND / ND / ND / ND", "log10 Kd (nM), mean": "ND", "empty controls": "0/18"}
{"VH": "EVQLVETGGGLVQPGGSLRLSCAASGFTLNSYGISWVRQAPGKGPEWVSVIYSDGRRTFYGDSVKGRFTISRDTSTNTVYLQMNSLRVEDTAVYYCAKGSAKGTFDSWGQGTLVTVSS", "replicates, log10 nM": "ND / ND / ND / ND / ND / ND", "log10 Kd (nM), mean": "ND", "empty controls": "0/18"}

Extract of 3 entries:

{"VH": "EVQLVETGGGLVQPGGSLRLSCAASGFDLKSYGISWVRQAPGKGPEWVSVIYSDGRRTAYGDSVKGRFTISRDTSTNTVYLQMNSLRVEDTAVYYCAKGFAAGTFPSWGQGTLVTVSS", "replicates, log10 nM": "ND / ND / ND / ND / ND / ND", "log10 Kd (nM), mean": "ND", "empty controls": "0/18"}
{"VH": "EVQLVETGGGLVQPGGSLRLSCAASQFTLNSYGISWVRQAPGKGPEWVSVIYSDGRRTFYGDSVKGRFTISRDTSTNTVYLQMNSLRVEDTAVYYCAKGRAAGTFDVWGQGTLVTVSS", "replicates, log10 nM": "ND / ND / ND / ND / ND / ND", "log10 Kd (nM), mean": "ND", "empty controls": "0/18"}
{"VH": "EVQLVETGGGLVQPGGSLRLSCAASGFTLNSYGISWVRQAPGKGPEWVSVIYSDGSRTFYDDSVKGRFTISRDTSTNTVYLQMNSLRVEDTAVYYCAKGRLAGTFDSWGQGTLVTVSS", "replicates, log10 nM": "ND / ND / ND / ND / ND / ND", "log10 Kd (nM), mean": "ND", "empty controls": "0/18"}

The authors averaged sequences with at least three values out of six and counted those with two or fewer as poor binders.
As a blank, each scFv also met three strains without target: over all heavy chain designs, 1% of these pairings were detected, typically at 2.08 and seldom below 0.84. Also given: how often the same scFv was detected with the empty control strains, with their mean in brackets.
A sequence measured in both rounds can read differently, since the two assays cover different ranges.